Source: patent US9822157B2 (priority 2013, dated 2017)

Target: T1, human ferroportin (Homo sapiens, UniProt Q9NP59)
T1 sequence (Q9NP59 1-571): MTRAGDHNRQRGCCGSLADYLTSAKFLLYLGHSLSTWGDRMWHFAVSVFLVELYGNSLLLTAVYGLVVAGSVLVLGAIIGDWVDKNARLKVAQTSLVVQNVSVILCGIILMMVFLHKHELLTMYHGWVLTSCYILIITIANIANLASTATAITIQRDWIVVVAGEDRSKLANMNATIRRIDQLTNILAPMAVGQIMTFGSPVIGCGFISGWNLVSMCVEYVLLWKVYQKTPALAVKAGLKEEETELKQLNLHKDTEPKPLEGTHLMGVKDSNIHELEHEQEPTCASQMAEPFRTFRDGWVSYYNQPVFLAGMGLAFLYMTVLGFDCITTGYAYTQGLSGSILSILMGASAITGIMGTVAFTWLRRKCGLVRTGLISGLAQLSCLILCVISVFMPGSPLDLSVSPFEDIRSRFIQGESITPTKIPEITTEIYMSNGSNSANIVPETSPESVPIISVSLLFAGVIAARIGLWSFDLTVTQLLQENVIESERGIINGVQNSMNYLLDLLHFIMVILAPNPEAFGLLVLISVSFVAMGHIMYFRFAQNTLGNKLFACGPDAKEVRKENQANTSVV
Type: cell-based
Details: Hepcidin analog peptides; read-out: Potency EC50
From the text: The cDNA encoding the human ferroportin (SLC40A1) was cloned from a cDNA clone from Origene (NM_014585). The DNA encoding the ferroportin was amplified by PCR using primers also encoding terminal restriction sites for subcloning, but without the termination codon. The ferroportin receptor was subcloned into a mammalian GFP expression vector containing a neomycin (G418) resistance marker in such that the reading frame of the ferroportin was fused in frame with the GFP protein. The fidelity of the DNA encoding the protein was confirmed by DNA sequencing. HEK293 cells were used for transfection of the ferroportin-GFP receptor expression plasmid. The cells were grown according to standard protocol in growth medium and transfected with the plasmids using Lipofectamine (manufacturer's protocol, Invitrogen). […] The cells were propagated and frozen in aliquots.
Compound was added to desired final concentration for at least 18 hours in the incubator. […] Compound was added to desired final concentration for at least 18 hours but no more than 24 hours in the incubator.
A retro inverse peptide is a peptide with a reversed sequence in all D amino acids. […] The EC50 of these reference compounds for ferroportin degradation was determined according to the activity assay described above.

Hy-DTHFPCIKFGPRSKGWVCK-NH2 [Compound 102]
EC50: > 1000 nM
